Reference: PubChem BioAssay (NCI)
Some tests of the compounds listed are not included; inactive here does not mean inactive elsewhere.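 In this assay, cells in 96-well plates receive the compound at five concentrations for 48 hours. Endpoints are linearly interpolated between the surrounding concentrations. Here, GI50 denotes the concentration required for 50% inhibition of growth. The concentration for full growth arrest is given as TGI.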

Tests used:
Experiment in all cases: inhibition of tumour cell growth, NCI panel, 48 h
786-0 renal = tested on: 786-0 renal
A498 renal = tested on: A498 renal
A549 NSCLC = tested on: A549 NSCLC
ACHN renal = tested on: ACHN renal
CAKI-1 renal = tested on: CAKI-1 renal
CCRF-CEM leukemia = tested on: CCRF-CEM leukemia
COLO 205 colon = tested on: COLO 205 colon
DU-145 prostate = tested on: DU-145 prostate
EKVX NSCLC = tested on: EKVX NSCLC
HCC-2998 colon = tested on: HCC-2998 colon
HCT-116 colon = tested on: HCT-116 colon
HCT-15 colon = tested on: HCT-15 colon
HL-60(TB) leukemia = tested on: HL-60(TB) leukemia
HOP-62 NSCLC = tested on: HOP-62 NSCLC
HOP-92 NSCLC = tested on: HOP-92 NSCLC
HS 578T breast = tested on: HS 578T breast
HT29 colon = tested on: HT29 colon
IGROV1 ovarian = tested on: IGROV1 ovarian
K-562 leukemia = tested on: K-562 leukemia
KM12 colon = tested on: KM12 colon
LOX IMVI melanoma = tested on: LOX IMVI melanoma
M14 melanoma = tested on: M14 melanoma
MALME-3M melanoma = tested on: MALME-3M melanoma
MCF7 breast = tested on: MCF7 breast
MDA-MB-231 breast = tested on: MDA-MB-231 breast
MDA-MB-435 = tested on: MDA-MB-435
MOLT-4 leukemia = tested on: MOLT-4 leukemia
NCI-H226 lung = tested on: NCI-H226 lung
NCI-H23 lung = tested on: NCI-H23 lung
NCI-H322M lung = tested on: NCI-H322M lung
NCI-H460 lung = tested on: NCI-H460 lung
NCI-H522 lung = tested on: NCI-H522 lung
NCI/ADR-RES ovarian = tested on: NCI/ADR-RES ovarian
OVCAR-3 ovarian = tested on: OVCAR-3 ovarian
OVCAR-4 ovarian = tested on: OVCAR-4 ovarian
OVCAR-5 ovarian = tested on: OVCAR-5 ovarian
OVCAR-8 ovarian = tested on: OVCAR-8 ovarian
PC-3 prostate = tested on: PC-3 prostate
RPMI-8226 leukemia = tested on: RPMI-8226 leukemia
RXF 393 renal = tested on: RXF 393 renal
SF-268 CNS = tested on: SF-268 CNS
SF-295 CNS = tested on: SF-295 CNS
SF-539 CNS = tested on: SF-539 CNS
SK-MEL-2 melanoma = tested on: SK-MEL-2 melanoma
SK-MEL-28 melanoma = tested on: SK-MEL-28 melanoma
SK-MEL-5 melanoma = tested on: SK-MEL-5 melanoma
SK-OV-3 ovarian = tested on: SK-OV-3 ovarian
SN12C renal = tested on: SN12C renal
SNB-19 CNS = tested on: SNB-19 CNS
SNB-75 CNS = tested on: SNB-75 CNS
SR leukemia = tested on: SR leukemia
SW-620 colon = tested on: SW-620 colon
T-47D breast = tested on: T-47D breast
TK-10 renal = tested on: TK-10 renal
U251 CNS = tested on: U251 CNS
UACC-257 melanoma = tested on: UACC-257 melanoma
UACC-62 melanoma = tested on: UACC-62 melanoma
UO-31 renal = tested on: UO-31 renal

SMILES: C#CC(O)(C(=O)OC1CN2CCC1CC2)c1ccccc1 (stereo unspecified)
- GI50 (786-0 renal): > 100 µM
- TGI (786-0 renal): > 100 µM
- GI50 (A498 renal): > 100 µM
- TGI (A498 renal): > 100 µM
- GI50 (A549 NSCLC): > 100 µM
- TGI (A549 NSCLC): > 100 µM
- GI50 (ACHN renal): > 100 µM
- TGI (ACHN renal): > 100 µM
- GI50 (CAKI-1 renal): > 100 µM
- TGI (CAKI-1 renal): > 100 µM
- GI50 (CCRF-CEM leukemia): > 100 µM
- TGI (CCRF-CEM leukemia): > 100 µM
- GI50 (COLO 205 colon): > 100 µM
- TGI (COLO 205 colon): > 100 µM
- GI50 (DU-145 prostate): > 100 µM
- TGI (DU-145 prostate): > 100 µM
- GI50 (EKVX NSCLC): > 100 µM
- TGI (EKVX NSCLC): > 100 µM
- GI50 (HCC-2998 colon): > 100 µM
- TGI (HCC-2998 colon): > 100 µM
- GI50 (HCT-116 colon): > 100 µM
- TGI (HCT-116 colon): > 100 µM
- GI50 (HCT-15 colon): > 100 µM
- TGI (HCT-15 colon): > 100 µM
- GI50 (HL-60(TB) leukemia): > 100 µM
- TGI (HL-60(TB) leukemia): > 100 µM
- GI50 (HOP-62 NSCLC): > 100 µM
- TGI (HOP-62 NSCLC): > 100 µM
- GI50 (HOP-92 NSCLC): > 100 µM
- TGI (HOP-92 NSCLC): > 100 µM
- GI50 (HS 578T breast): > 100 µM
- TGI (HS 578T breast): > 100 µM
- GI50 (HT29 colon): > 100 µM
- TGI (HT29 colon): > 100 µM
- GI50 (IGROV1 ovarian): > 100 µM
- TGI (IGROV1 ovarian): > 100 µM
- GI50 (K-562 leukemia): > 100 µM
- TGI (K-562 leukemia): > 100 µM
- GI50 (KM12 colon): > 100 µM
- TGI (KM12 colon): > 100 µM
- GI50 (LOX IMVI melanoma): > 100 µM
- TGI (LOX IMVI melanoma): > 100 µM
- GI50 (M14 melanoma): > 100 µM
- TGI (M14 melanoma): > 100 µM
- GI50 (MALME-3M melanoma): > 100 µM
- TGI (MALME-3M melanoma): > 100 µM
- GI50 (MCF7 breast): > 100 µM
- TGI (MCF7 breast): > 100 µM
- GI50 (MDA-MB-231 breast): > 100 µM
- TGI (MDA-MB-231 breast): > 100 µM
- GI50 (MDA-MB-435): > 100 µM
- TGI (MDA-MB-435): > 100 µM
- GI50 (MOLT-4 leukemia): > 100 µM
- TGI (MOLT-4 leukemia): > 100 µM
- GI50 (NCI-H226 lung): > 100 µM
- TGI (NCI-H226 lung): > 100 µM
- GI50 (NCI-H23 lung): > 100 µM
- TGI (NCI-H23 lung): > 100 µM
- GI50 (NCI-H322M lung): > 100 µM
- TGI (NCI-H322M lung): > 100 µM
- GI50 (NCI-H460 lung): > 100 µM
- TGI (NCI-H460 lung): > 100 µM
- GI50 (NCI-H522 lung): > 100 µM
- TGI (NCI-H522 lung): > 100 µM
- GI50 (NCI/ADR-RES ovarian): > 100 µM
- TGI (NCI/ADR-RES ovarian): > 100 µM
- GI50 (OVCAR-3 ovarian): > 100 µM
- TGI (OVCAR-3 ovarian): > 100 µM
- GI50 (OVCAR-4 ovarian): > 100 µM
- TGI (OVCAR-4 ovarian): > 100 µM
- GI50 (OVCAR-5 ovarian): > 100 µM
- TGI (OVCAR-5 ovarian): > 100 µM
- GI50 (OVCAR-8 ovarian): > 100 µM
- TGI (OVCAR-8 ovarian): > 100 µM
- GI50 (PC-3 prostate): > 100 µM
- TGI (PC-3 prostate): > 100 µM
- GI50 (RPMI-8226 leukemia): > 100 µM
- TGI (RPMI-8226 leukemia): > 100 µM
- GI50 (RXF 393 renal): > 100 µM
- TGI (RXF 393 renal): > 100 µM
- GI50 (SF-268 CNS): > 100 µM
- TGI (SF-268 CNS): > 100 µM
- GI50 (SF-295 CNS): > 100 µM
- TGI (SF-295 CNS): > 100 µM
- GI50 (SF-539 CNS): > 100 µM
- TGI (SF-539 CNS): > 100 µM
- GI50 (SK-MEL-2 melanoma): > 100 µM
- TGI (SK-MEL-2 melanoma): > 100 µM
- GI50 (SK-MEL-28 melanoma): > 100 µM
- TGI (SK-MEL-28 melanoma): > 100 µM
- GI50 (SK-MEL-5 melanoma): > 100 µM
- TGI (SK-MEL-5 melanoma): > 100 µM
- GI50 (SK-OV-3 ovarian): > 100 µM
- TGI (SK-OV-3 ovarian): > 100 µM
- GI50 (SN12C renal): > 100 µM
- TGI (SN12C renal): > 100 µM
- GI50 (SNB-19 CNS): > 100 µM
- TGI (SNB-19 CNS): > 100 µM
- GI50 (SNB-75 CNS): > 100 µM
- TGI (SNB-75 CNS): > 100 µM
- GI50 (SR leukemia): > 100 µM
- TGI (SR leukemia): > 100 µM
- GI50 (SW-620 colon): > 100 µM
- TGI (SW-620 colon): > 100 µM
- GI50 (T-47D breast): > 100 µM
- TGI (T-47D breast): > 100 µM
- GI50 (TK-10 renal): > 100 µM
- TGI (TK-10 renal): > 100 µM
- GI50 (U251 CNS): > 100 µM
- TGI (U251 CNS): > 100 µM
- GI50 (UACC-257 melanoma): > 100 µM
- TGI (UACC-257 melanoma): > 100 µM
- GI50 (UACC-62 melanoma): > 100 µM
- TGI (UACC-62 melanoma): > 100 µM
- GI50 (UO-31 renal): > 100 µM
- TGI (UO-31 renal): > 100 µM
